{"source": "patent US20190014776A1", "about": "(priority 2017, published 2019)", "type": "physicochemical", "details": "relative to tank mix of CLARITY and CONTROLMAX; dicamba 1.2 wt. % a.e., glyphosate 2.4 wt. % a.e.; 35° C., 40% RH, 24 hours", "data": [{"smiles": "CCCC[P+](CCCC)(CCCC)CCCC.COc1c(Cl)ccc(Cl)c1C(=O)[O-]", "note": "[TBP Dicamba, tetrabutylphosphonium (TBP) dicamba]", "values": [{"measurement": "Volatility Reduction", "result": 99.7, "unit": "%"}]}]}
